What was measured:
Rattus norvegicus [1] = species on record: Rattus norvegicus; experiment: Open TG-GATES - Regimen: Daily Repeat; format: toxicity, organism-based, Sprague-Dawley; set-up: regimen Daily Repeat, gender Male, age 6 weeks; settings: in vivo, po, route gavage; for MCH: tissue Blood; for TC: tissue Plasma
Rattus norvegicus [2] = species on record: Rattus norvegicus; experiment: Open TG-GATES - Regimen: Single; format: toxicity, organism-based, Sprague-Dawley; set-up: regimen Single, gender Male, age 6 weeks; settings: in vivo, po, route gavage; for MCH: tissue Blood; for TC: tissue Plasma
[3] = 0 mg/kg, 72 h, dose level Control, time 3 day
[4] = 0 mg/kg, […], dose level Control, time 7 day
[5] = 0 mg/kg, […], dose level Control, time 14 day
[6] = 0 mg/kg, […], dose level Control, time 28 day
[7] = 100 mg/kg, 72 h, dose level Low, time 3 day
[8] = 100 mg/kg, […], dose level Low, time 7 day
[9] = 100 mg/kg, […], dose level Low, time 14 day
[10] = 100 mg/kg, […], dose level Low, time 28 day
[11] = 300 mg/kg, 72 h, dose level Middle, time 3 day
[12] = 300 mg/kg, […], dose level Middle, time 7 day
[13] = 300 mg/kg, […], dose level Middle, time 14 day
[14] = 300 mg/kg, […], dose level Middle, time 28 day
[15] = 1000 mg/kg, 72 h, dose level High, time 3 day
[16] = 1000 mg/kg, […], dose level High, time 7 day
[17] = 1000 mg/kg, […], dose level High, time 14 day
[18] = 1000 mg/kg, […], dose level High, time 28 day
[19] = 0 mg/kg, 6 h, dose level Control
[20] = 0 mg/kg, 24 h, dose level Control
[21] = 100 mg/kg, 24 h, dose level Low
[22] = 300 mg/kg, 3 h, dose level Middle
[23] = 300 mg/kg, 6 h, dose level Middle
[24] = 300 mg/kg, 9 h, dose level Middle
[25] = 1000 mg/kg, 3 h, dose level High
[26] = 1000 mg/kg, 9 h, dose level High
[27] = 1000 mg/kg, 24 h, dose level High

## CN(C)C(=N)N=C(N)N [METFORMIN]
Rattus norvegicus [1]; [3]
  MCH: 21.8 pg
  TC: 86 mg/dL
Rattus norvegicus [1]; [4]
  MCH: 21.8 pg
  TC: 77.8 mg/dL
Rattus norvegicus [1]; [5]
  MCH: 20.9 pg
  TC: 73.6 mg/dL
Rattus norvegicus [1]; [6]
  MCH: 19.8 pg
  TC: 71.4 mg/dL
Rattus norvegicus [1]; [7]
  MCH: 21.7 pg
  TC: 84 mg/dL
Rattus norvegicus [1]; [8]
  MCH: 21.4 pg
  TC: 77.8 mg/dL
Rattus norvegicus [1]; [9]
  MCH: 20.9 pg
  TC: 83.8 mg/dL
Rattus norvegicus [1]; [10]
  MCH: 19.6 pg
  TC: 82 mg/dL
Rattus norvegicus [1]; [11]
  MCH: 21.3 pg
  TC: 79.6 mg/dL
Rattus norvegicus [1]; [12]
  MCH: 21.1 pg
  TC: 81 mg/dL
Rattus norvegicus [1]; [13]
  MCH: 20.8 pg
  TC: 81.8 mg/dL
Rattus norvegicus [1]; [14]
  MCH: 19.7 pg
  TC: 71.4 mg/dL
Rattus norvegicus [1]; [15]
  MCH: 21.5 pg
  TC: 75.8 mg/dL
Rattus norvegicus [1]; [16]
  MCH: 20.9 pg
  TC: 76.2 mg/dL
Rattus norvegicus [1]; [17]
  MCH: 20.5 pg
  TC: 77.6 mg/dL
Rattus norvegicus [1]; [18]
  MCH: 19.8 pg
  TC: 70.6 mg/dL
Rattus norvegicus [2]; 0 mg/kg, 3 h, dose level Control
  MCH: 21.6 pg
Rattus norvegicus [2]; [19]
  MCH: 20.9 pg
  TC: 76.6 mg/dL
Rattus norvegicus [2]; 0 mg/kg, 9 h, dose level Control
  MCH: 21.5 pg
Rattus norvegicus [2]; [20]
  MCH: 21.8 pg
  TC: 73.6 mg/dL
Rattus norvegicus [2]; 100 mg/kg, 3 h, dose level Low
  MCH: 21.8 pg
Rattus norvegicus [2]; 100 mg/kg, 6 h, dose level Low
  MCH: 21 pg
  TC: 78.4 mg/dL
Rattus norvegicus [2]; 100 mg/kg, 9 h, dose level Low
  MCH: 21.3 pg
  TC: 71.8 mg/dL
Rattus norvegicus [2]; [21]
  MCH: 21.7 pg
  TC: 73.4 mg/dL
Rattus norvegicus [2]; [22]
  MCH: 21.1 pg
  TC: 81.8 mg/dL
Rattus norvegicus [2]; [23]
  MCH: 21.2 pg
  TC: 76.8 mg/dL
Rattus norvegicus [2]; [24]
  MCH: 21.5 pg
  TC: 77.2 mg/dL
Rattus norvegicus [2]; 300 mg/kg, 24 h, dose level Middle
  MCH: 21.4 pg
Rattus norvegicus [2]; [25]
  MCH: 21.2 pg
  TC: 79.2 mg/dL
Rattus norvegicus [2]; 1000 mg/kg, 6 h, dose level High
  MCH: 21.5 pg
Rattus norvegicus [2]; [26]
  MCH: 21.9 pg
  TC: 79.8 mg/dL
Rattus norvegicus [2]; [27]
  MCH: 21.6 pg
  TC: 79 mg/dL

Source: ChEMBL document CHEMBL3885861, “Open TG-GATES”
